Numbers after ± are expanded uncertainties.
Details: 313.15 K; Liquid; Ebulliometric method (Recirculating still)

Which “vapor or sublimation pressure” value does the source give for `CCCCOCCCC` [dibutyl ether] here?
The value was 2.055 ± 0.047 kPa [middle of 7 runs].

Source: the NIST ThermoML archive (doi:10.1021/je7007523)
